The values that follow come from article PMC9747113 (Clinical and Translational Science, 2022).

This data set is described as follows: Population PK model of evobrutinib plasma concentration-time data.

Regarding `C=CC(=O)N1CCC(CNc2ncnc(N)c2-c2ccc(Oc3ccccc3)cc2)CC1` [evobrutinib, Evobrutinib], under “covariate effect, fed D1 = D1*(1 + 4.27)”, the “Food on D 1” value was determined as 4.27. Moreover, the “Zero-order absorption D 1 (duration of zero-order input)” value (fasted condition) worked out at 0.181 h. Under “fed condition (low-fat meal)”, the “D 1 (duration of zero-order input)” value is on record as 0.954 h. For the same compound, the “Increase of duration of the first-order input with food compared with fasted” value (low-fat meal vs fasted) was 427%.
